Measured values: patent US10239887B2, “Positive allosteric modulators of the muscarinic acetylcholine receptor M4” (Vanderbilt University, priority 2016, dated 2019)

Experiments:
human adenosine A2a = human adenosine A2a (Homo sapiens, UniProt P29274); assay: Eurofins LeadProfilingScreen, adenosine A2a; conditions: 10 μM (binding)
[1] = fraction unbound in plasma, human
[2] = fraction unbound in plasma, rat

SMILES: Cc1nnc2sc3c(NCc4ccc(C(C)(C)O)cc4)ncnc3c2c1C [Compound 76, 2-[4-[[(3,4-Dimethylpyrimido[4′,5′:4,5]thieno[2,3-c]pyridazin-8-yl)amino]methyl]phenyl]propan-2-ol]
- inhibition of human adenosine A2a (human adenosine A2a): 50%
- Human Fu (plasma) [1]: 0.007
- Rat Fu (plasma) [2]: 0.02
- Rat brain: plasma Kp, uu (in vivo DMPK, rat): 0.21
